Test results from ChEMBL document CHEMBL3997776, “Oxime Ethers of (E)-11-Isonitrosostrychnine as Highly Potent Glycine Receptor Antagonists” (J Nat Prod, 2016).

Sequences of proteins named here, by UniProt entry; tags and fusion partners are left off. Residues count along the entry.
UniProt P23415, 29-457 limits assumed: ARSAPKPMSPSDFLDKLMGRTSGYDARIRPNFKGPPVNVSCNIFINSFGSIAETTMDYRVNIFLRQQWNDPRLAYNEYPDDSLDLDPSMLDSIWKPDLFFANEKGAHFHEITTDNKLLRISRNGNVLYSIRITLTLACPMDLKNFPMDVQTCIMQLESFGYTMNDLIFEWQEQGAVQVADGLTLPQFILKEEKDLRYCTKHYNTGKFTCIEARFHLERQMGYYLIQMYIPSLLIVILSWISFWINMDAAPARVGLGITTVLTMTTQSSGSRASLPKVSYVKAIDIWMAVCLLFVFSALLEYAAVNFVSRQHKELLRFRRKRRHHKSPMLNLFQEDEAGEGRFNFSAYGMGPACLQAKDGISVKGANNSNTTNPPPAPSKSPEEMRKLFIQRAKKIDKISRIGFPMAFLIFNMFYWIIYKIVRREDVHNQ
UniProt P48167, 23-497 limits assumed: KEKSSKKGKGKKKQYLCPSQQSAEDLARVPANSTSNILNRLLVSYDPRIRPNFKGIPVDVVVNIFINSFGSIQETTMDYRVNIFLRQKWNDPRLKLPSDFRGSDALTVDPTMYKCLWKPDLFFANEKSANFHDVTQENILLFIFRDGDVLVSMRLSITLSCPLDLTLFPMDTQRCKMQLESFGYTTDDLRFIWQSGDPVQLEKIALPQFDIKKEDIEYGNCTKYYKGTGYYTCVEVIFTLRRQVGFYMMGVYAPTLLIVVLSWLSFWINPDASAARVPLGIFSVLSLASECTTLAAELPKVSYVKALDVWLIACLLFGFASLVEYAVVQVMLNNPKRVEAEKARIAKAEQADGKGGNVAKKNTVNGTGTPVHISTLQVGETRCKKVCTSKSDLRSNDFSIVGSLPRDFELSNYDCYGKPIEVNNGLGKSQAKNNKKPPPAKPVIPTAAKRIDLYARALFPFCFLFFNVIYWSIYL

What was measured:
[1] = molecular target: T1, Glycine receptor (alpha-1/beta) (Homo sapiens, UniProt P23415+P48167); experiment: Antagonist activity at recombinant human glycine receptor alpha 1 beta expressed in HEK293 cells assessed as inhibition of glycine-induced current at -50mV holding potential by whole cell patch-clamp method
[2] = molecular target: T1, Glycine receptor (alpha-1/beta); experiment: Antagonist activity at recombinant human glycine receptor alpha 1 beta expressed in human tsA201 cells assessed as inhibition of glycine-induced receptor activation after 30 mins by FLIPR membrane potential blue assay
[3] = molecular target: T2, Glycine receptor subunit alpha-1 (Homo sapiens, UniProt P23415); experiment: Antagonist activity at recombinant human glycine receptor alpha 1 expressed in human tsA201 cells assessed as inhibition of glycine-induced receptor activation after 30 mins by FLIPR membrane potential blue assay
[4] = molecular target: T2, Glycine receptor subunit alpha-1; experiment: Displacement of [3H]strychnine from recombinant human glycine receptor alpha 1 expressed in HEK293 cell membranes after 30 mins by liquid scintillation counting method
[5] = molecular target: T2, Glycine receptor subunit alpha-1; experiment: Antagonist activity at recombinant human glycine receptor alpha 1 expressed in HEK293 cells assessed as inhibition of glycine-induced current at -50 mV holding potential by whole cell patch-clamp method

O=C1/C(=N/O)[C@@H]2OCC=C3CN4CC[C@]56c7ccccc7N1[C@H]5[C@H]2[C@H]3C[C@H]46
IC50 [1]: 0.08 µM | IC50 [2]: 0.21 µM | IC50 [3]: 0.097 µM | Ki [4]: 0.04 µM | IC50 [5]: 0.082 µM
